E-sel inducer: E-selectin induction on HUVECs. P16581. HUVEC E-selectin immunofluorescence imaging; normalized: neutral wells 0, TNF-alpha wells 100. activation, % at 7.58 µM. hit rate 0.37% among 260,000. AID 686992;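 active = mean E-selectin-positive cell signal at least 10% of the positive control, reached in at least 60% of replicates, without over 20% cell loss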
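Test system: HUVEC | Signal: Immunofluorescence imaging | Read-out: Percent E-selectin-positive cells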
RAD54 inh: blocks human RAD54 Holliday junction branch migration; FAM/BHQ fluorescence; Q92698; hit rate 0.14% among 360,000; inhibition, % at 10.4 µM; AID 602329;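 active = mean normalized replicate activity at least 40 and at least half of replicates scoring 40 or more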;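 also: inhibitors cause a drop in the FAM fluorescence signal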
RAD52 inh: inhibitors of human RAD52 DNA annealing; P43351; recombinant RAD52 DNA annealing, FRET fluorescence; inhibition, % at 18.7 µM; hit rate 0.46% among 360,000; AID 651710;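 active = every replicate showing at least 50% inhibition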
AF4-AF9 inh: inhibitors of human MLL-AF4/AF9 interaction; hit rate 0.47% among 350,000; inhibition, % at 10 µM; P42568; AID 651704; AlphaScreen, biotin-AF4 peptide binding to FLAG-AF9;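 active = every replicate reaching a set inhibition limit, whatever the replicate mean, cut at about 25% in these data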
UUG fidelity: alters start codon recognition fidelity in yeast | S. cerevisiae UUG-firefly luciferase reporter, luminescence/redox ratio | activity score, % at 18.7 µM | hit rate 0.13% among 350,000 | AID 602363;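 active means replicate mean at a twofold rise or more, about +100% in these data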;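 further: firefly luciferase made from a UUG start codon reports start codon fidelity; reporter light over untreated wells divided by growth signal over untreated wells; some hits fall short of that in this replicate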
SIRT5 block: sirtuin-5 (human) deacylase inhibition; AID 652115; Purified SirT5, succinyl-peptide AMC, trypsin-coupled fluorescence; inhibition, % at 15 µM; hit rate 1.1% among 330,000; Q9NXA8; in the data active = inhibition above about 15%
Each line names hits and unclear results; the compound was inactive in the other large screens; ! = a repeat was not active. This is a sample that favours compounds with a hit; in the whole collection about 1.8% have one here.

CN(C1CCCC1)C1CCN(C(=O)CNC(=O)/C=C/c2cccc(C(F)(F)F)c2)CC1	E-sel inducer 39
COCCCNC(=O)CCn1c(=O)c2ccccc2n(Cc2cccc([N+](=O)[O-])c2)c1=O	SIRT5 block 29 (no result: AF4-AF9 inh)
COCCCNC(=O)CCCn1c(=O)c2ccccc2n(Cc2cccc([N+](=O)[O-])c2)c1=O	none
COc1ccc(CCn2c(=O)c3cccnc3n(Cc3cccc([N+](=O)[O-])c3)c2=O)cc1OC	E-sel inducer 27 (no result: RAD54 inh, UUG fidelity)
CS(=O)(=O)N1CC2(C1)[C@H](c1ccccc1)[C@@H](CO)N2C(=O)C1CCC1	none (no result: RAD54 inh, UUG fidelity)
O=C(C[C@@H]1C=C[C@@H](NC(=O)Nc2ccccc2F)[C@H](CO)O1)NCc1ccccc1	none (no result: RAD54 inh, UUG fidelity)
CC(=O)C1=C(C)Nc2ncnn2C1c1ccc(O)cc1 (stereo unspecified)	E-sel inducer 44
CC(C)NC(=O)N(C)C[C@@H]1Oc2c(NC(=O)Nc3ccc(C(F)(F)F)cc3)cccc2C(=O)N([C@H](C)CO)C[C@H]1C	none (no result: E-sel inducer)
CO/N=C/C(c1ccc(Cl)nc1)S(=O)(=O)c1ccccc1 (stereo unspecified)	SIRT5 block 21 (no result: E-sel inducer)
O=C(N[C@@H]1CC[C@H](CC(=O)N2CCOCC2)O[C@H]1CO)c1ccc2c(c1)OCO2	none
Cc1c(CCOC(=O)C23CC4CC(CC(C)(C4)C2)C3)sc[n+]1CC(=O)c1ccccc1	none
Cc1c(CCOC(=O)CC23CC4CC(CC(C)(C4)C2)C3)sc[n+]1CC(=O)c1ccccc1	RAD52 inh 62, AF4-AF9 inh 27 (no result: E-sel inducer, RAD54 inh, UUG fidelity)
COCCNC(=O)CN(C(=O)CCC(=O)Nc1ccccn1)c1cc(C)ccc1C	AF4-AF9 inh 26
C[C@@H]1CN([C@H](C)CO)C(=O)c2cc(NS(=O)(=O)c3ccc(Cl)cc3)ccc2O[C@@H](C)CCCCO[C@H]1CN(C)Cc1ccc2c(c1)OCO2	RAD52 inh 52! (no result: E-sel inducer)
C[C@@H]1CCCCO[C@@H](CN(C)Cc2ccc3c(c2)OCO3)[C@@H](C)CN([C@@H](C)CO)C(=O)c2cc(NS(=O)(=O)c3ccc(Cl)cc3)ccc2O1	RAD52 inh 58! (no result: E-sel inducer)
C[C@H]1CCCCO[C@H](CN(C)Cc2ccc3c(c2)OCO3)[C@@H](C)CN([C@@H](C)CO)C(=O)c2cc(NS(=O)(=O)c3ccc(Cl)cc3)ccc2O1	RAD52 inh 55 (no result: E-sel inducer)
C[C@@H]1CCCCO[C@@H](CN(C)Cc2ccc3c(c2)OCO3)[C@@H](C)CN([C@H](C)CO)C(=O)c2cc(NS(=O)(=O)c3ccc(Cl)cc3)ccc2O1	none (no result: E-sel inducer)
COc1ccc(N2c3ccccc3CN(Cc3ccccc3)[C@@H](C)[C@H]2Cc2cccnc2)cc1	AF4-AF9 inh 25 (no result: SIRT5 block)
C[C@@H]1CN([C@@H](C)CO)C(=O)c2cc(NC(=O)C3CCCCC3)ccc2O[C@@H](C)CCCCO[C@@H]1CN(C)S(=O)(=O)c1ccc(Cl)cc1	SIRT5 block 18
C[C@@H]1CCCCO[C@H](CN(C)S(=O)(=O)c2ccccc2)[C@@H](C)CN([C@@H](C)CO)C(=O)c2cc(NC(=O)C3CCCCC3)ccc2O1	SIRT5 block 16
NCC[C@H]1CC[C@H](NS(=O)(=O)Cc2ccccc2)[C@@H](CO)O1	none
CCNC(=O)[C@@H]1[C@@H](CO)[C@@H]2Cn3c(ccc(C4=CCCCC4)c3=O)[C@H]1N2Cc1cocn1	none (no result: UUG fidelity)
N#C[C@H]1[C@H](c2ccc(-c3ccccc3)cc2)[C@H](CO)N1C(=O)Cc1ccccc1	SIRT5 block 15
N#C[C@@H]1[C@@H](c2ccc(-c3ccc(F)cc3)cc2)[C@H](CO)N1c1nc(-c2ccccc2)cs1	none
N#C[C@@H]1[C@H](c2ccc(-c3ccc(F)cc3)cc2)[C@@H](CO)N1c1nc(-c2ccccc2)cs1	RAD52 inh 63 (no result: RAD54 inh, UUG fidelity)
N#C[C@@H]1[C@@H](c2ccc(-c3ccccc3)cc2)[C@H](CO)N1C(=O)Cc1ccccc1	none
C#Cc1ccc([C@@H]2C=C(C(=O)N3CCCCCCC3)O[C@H](OCC)[C@H]2CCCO)cc1	none (no result: E-sel inducer, RAD54 inh, UUG fidelity)
CC(C)CC#Cc1ccc([C@H]2[C@H](CO)N3C(=O)CN(S(=O)(=O)c4ccccc4)C[C@@H]23)cc1	none (no result: RAD54 inh, UUG fidelity)
NC(=NC(=O)c1ccc(Cl)cc1)N1N=CCC1c1ccccc1 (stereo unspecified)	SIRT5 block 16 (no result: E-sel inducer)
O=C(CSc1ccc(Cl)cc1)N1N=CCC1c1ccccc1 (stereo unspecified)	none (no result: RAD54 inh, UUG fidelity)
